Cyclic peptide permeability, from CycPeptMPDB

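The data file gives no further conditions (lipid, pH, time, direction or concentration), and values from different papers need not be comparable. The list need not hold all peptides of the study. Peptides that the database sets to -10, its floor, are left out.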

PAMPA is the parallel artificial membrane permeability assay, which has no cells and reads passive diffusion. P is given in units of 10^-6 cm/s (from log10 values with two decimals); larger means faster passage.

SMILES	PAMPA (10^-6 cm/s)
CC[C@H](C)[C@@H]1NC(=O)[C@H]([C@@H](C)CC)N(C)C(=O)[C@H](CO)NC(=O)CN(C)C(=O)[C@H](CC(C)C)N(C)C(=O)[C@H]([C@@H](C)CC)NC(=O)CNC(=O)[C@H](CC(C)C)NC1=O	0.22

Data: CycPeptMPDB; original report Ramalho et al. 2018, doi:10.1021/acs.jnatprod.8b00447.